Earlier results as cited in US4874862A, “Process for preparing guanine derivatives” (Warner-Lambert Company, priority 1987, dated 1989).

Tested on: PNP
Settings: Biochem. Pharm., 31 (2), 163 (1982); cited from earlier work

SMILES: Nc1nc2nc(N)[nH]c2c(=O)[nH]1 [8-Aminoguanine]
- PNP-activity: reported to have PNP-activity
